Chains of the proteins cited; added tags and fusions are not shown.
UniProt P51681, whole entry: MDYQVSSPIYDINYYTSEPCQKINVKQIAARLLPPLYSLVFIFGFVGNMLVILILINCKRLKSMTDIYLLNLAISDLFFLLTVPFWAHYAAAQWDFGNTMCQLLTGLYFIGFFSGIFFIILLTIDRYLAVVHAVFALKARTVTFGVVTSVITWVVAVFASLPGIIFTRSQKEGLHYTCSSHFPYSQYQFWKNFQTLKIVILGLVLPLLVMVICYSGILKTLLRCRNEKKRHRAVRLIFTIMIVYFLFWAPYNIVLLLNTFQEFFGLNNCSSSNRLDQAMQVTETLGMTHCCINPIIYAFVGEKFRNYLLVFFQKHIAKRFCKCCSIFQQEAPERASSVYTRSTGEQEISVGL

According to patent US20090054451A1, “Use of Piperidine Derivatives as Agonists of Chemokine Receptor Activity” (Euroscreen S.A., priority 2007, published 2009):

Experiments:
[1] = biological target: T1, CCR5 receptor (Homo sapiens, UniProt P51681); assay: Aequorin-based calcium flux assay, agonist mode; format: cell-based; design: expressed in transfected cells; host or cells: Chinese hamster ovary (CHO) cells coexpressing apoaequorin and Gα16
Method: (§1) Briefly, Chinese hamster ovary cells expressing the CCR5 receptor are transfected to coexpress apoaequorin and Gα16. Cells are incubated with 5 μM Coelenterazine H (Promega) overnight at room temperature, and resuspended at a concentration of 0.1×10^6 cells/ml. Cells are then mixed with test agonist or antagonist compounds and light emission by the aequorin is recorded with a luminometer (FDSS 6000-Hamamatsu) for 30 sec. Results are expressed as Relative Light Units (RLU). Controls include cells not expressing CCR5 in order to exclude possible non-specific effects of the test compound.
An agonist response is defined as an increase of light emission by aequorin corresponding to 10% or more of the light emitted by a reference sample of cells expressing CCR5 and treated with a the reference agonist ligand MIP-1β.

[2] = biological target: T1, CCR5 receptor; assay: Aequorin-based calcium flux assay, antagonist mode (against reference agonist MIP-1β); format: cell-based; design: expressed in transfected cells; host or cells: Chinese hamster ovary (CHO) cells coexpressing apoaequorin and Gα16
Method: as §1
An antagonist response is defined as a decrease of light emission by aequorin of 10% or more in a sample of cells expressing CCR5 stimulated by a reference agonist ligand MIP-1β and treated with the compound of the invention, relative to a sample of cells expressing CCR5 but only treated with the reference agonist ligand MIP-1β.

CN(C(=O)Cc1ccc(Cl)cc1)C1CCN(CCC(c2ccccc2)c2ccccc2)CC1 [Compound 61]
Aequorin/Ca++ Agonist assay EC50 [1]: Inactive | IC50 ([2]; Aequorin/Ca++ Antagonist assay IC50): 34.9 nM | IC50 ([2]; IC50 (aequorin antagonist assay)): 34.9 nM
